The term IC50 denotes the midpoint of a concentration-inhibition curve. A low value points to higher potency.

The source of these data is patent publication US5919768A, “Di- and trivalent small molecule selectin inhibitors” (Texas Biotechnology Corporation, priority 1998, dated 1999).

The target of one experiment is T1, E-selectin (Homo sapiens, UniProt P16581).
T1 construct: amino terminal lectin, EGF, and complement regulatory-like repeats (CR) 1 and 2; made in house; host or cells: SF21 insect cells, baculovirus (BakPAK)
T1 sequence (P16581 22-301): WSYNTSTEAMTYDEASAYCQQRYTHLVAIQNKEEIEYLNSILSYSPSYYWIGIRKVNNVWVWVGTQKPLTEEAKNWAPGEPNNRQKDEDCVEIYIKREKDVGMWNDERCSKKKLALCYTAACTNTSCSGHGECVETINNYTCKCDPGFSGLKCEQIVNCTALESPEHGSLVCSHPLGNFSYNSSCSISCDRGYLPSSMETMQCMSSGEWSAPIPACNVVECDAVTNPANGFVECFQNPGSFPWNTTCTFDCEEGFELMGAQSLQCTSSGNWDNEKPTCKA
Nature of the experiment: Cell-protein assay: inhibition of binding of HL60 cells (expressing sialyl-Lewis^x) to E-selectin. Particulars: HL60 cell binding to selectin fusion protein on magnetic beads. As to the method: (§1) Compounds were assayed for their ability to inhibit the binding of E-, P-, and/or L-selectin to sialyl-Lewis^x.
(§2) The E-selectin binding assays involved assessing the ability of HL60 cells that express sialyl-Lewis^x and Lewis^x to purified E-selectin, P-selectin and L-selectin recombinant proteins (cell-protein assay). A similar binding assay utilizing purified glycolipids and purified L-selectin recombinant protein (glycolipid-protein) was used to assess L-selectin binding.
(§3) All selectin fusion cassettes were generated by PCR from the E-selectin cDNA purchased from R&D Systems (Minneapolis, Minn.), and from the P-selectin and L-selectin cDNAs that were PCR cloned from total RNA extracted from human placenta. The mouse IgG cDNA was cloned from PCR amplified cDNA generated from RNA extracted from the hybridoma cell line 402C10. All fusion cassettes were expressed from baculovirus vectors using the BakPAK method and SF21 cells purchased from Clonetech.
(§4) Recombinant fusion proteins were purified from baculovirus infected culture supernatants by immunoprecipitation using Dynal™ goat anti-mouse IgG coated magnetic beads. […]
(§5) HL60 cells (10^7 cells) were fluorescently labeled with calcein AMC-3099 (Molecular Probes) in RPMI 1640 with 10% fetal calf serum (FCS). […] Binding was quantitated fluorimetrically using a Millipore Cytofluor 2350 fluorimeter. […]

In the next experiment the target is T2, P-selectin (Homo sapiens, UniProt P16109).
T2 construct: amino terminal lectin, EGF, and complement regulatory-like repeats (CR) 1 and 2; made in house; host or cells: SF21 insect cells, baculovirus (BakPAK)
T2 sequence (P16109 42-321): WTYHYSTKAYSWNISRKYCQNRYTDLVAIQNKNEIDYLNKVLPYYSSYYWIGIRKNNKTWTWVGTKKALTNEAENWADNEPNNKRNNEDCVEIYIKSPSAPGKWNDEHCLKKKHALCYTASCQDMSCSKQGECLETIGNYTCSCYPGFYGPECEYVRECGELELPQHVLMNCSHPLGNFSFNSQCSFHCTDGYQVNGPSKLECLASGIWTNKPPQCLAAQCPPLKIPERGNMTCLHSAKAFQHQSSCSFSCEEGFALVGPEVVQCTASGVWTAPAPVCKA
Description: Cell-protein assay: inhibition of binding of HL60 cells (expressing sialyl-Lewis^x) to P-selectin. Particulars: HL60 cell binding to selectin fusion protein on magnetic beads. As to the method:
as §1, §2, §3, §4, §5

Another experiment has as its target T3, L-selectin (Homo sapiens, UniProt P14151).
T3 construct: amino terminal lectin, EGF, and complement regulatory-like repeats (CR) 1 and 2; made in house; host or cells: SF21 insect cells, baculovirus (BakPAK)
T3 sequence (P14151 39-318): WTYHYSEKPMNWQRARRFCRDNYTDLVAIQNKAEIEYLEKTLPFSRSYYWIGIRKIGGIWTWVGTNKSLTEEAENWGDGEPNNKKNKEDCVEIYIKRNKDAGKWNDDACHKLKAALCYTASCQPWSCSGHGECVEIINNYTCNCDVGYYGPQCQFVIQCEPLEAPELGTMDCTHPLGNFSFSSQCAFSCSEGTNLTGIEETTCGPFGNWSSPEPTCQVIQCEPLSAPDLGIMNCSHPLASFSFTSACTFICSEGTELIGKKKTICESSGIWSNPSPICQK
Description: Selectin binding assay: inhibition of binding of L-selectin to sialyl-Lewis^x (cell-protein; glycolipid-protein assay also mentioned). Particulars: in vitro selectin assay. As to the method: as §1, §2, §3, §4, §5

In turn, `O=C(O)Cc1cccc(-c2cc(CCCCc3ccc(O[C@H]4O[C@H](CO)[C@@H](O)[C@H](O)[C@@H]4O)c(-c4cccc(CC(=O)O)c4)c3)ccc2O[C@H]2O[C@H](CO)[C@@H](O)[C@H](O)[C@@H]2O)c1` [Compound A-4, 1,4-Bis-[3-(3-carboxymethylphenyl)-4-(2-α-D-mannopyranosyloxy)phenyl]butane] returned an IC50 on E-selectin of 5000 µM. That is a millimolar value. For the compound `O=C(O)Cc1cccc(-c2cc(CCCCCCc3ccc(O[C@H]4O[C@H](CO)[C@@H](O)[C@H](O)[C@@H]4O)c(-c4cccc(CC(=O)O)c4)c3)ccc2O[C@H]2O[C@H](CO)[C@@H](O)[C@H](O)[C@@H]2O)c1` [Compound A-6, 1,6-Bis-[3-(3-carboxymethylphenyl)-4-(2-α-D-mannopyranosyloxy)phenyl]hexane], the IC50 at P-selectin was 70 µM; at E-selectin, 500 µM. `O=C(O)Cc1cccc(-c2cc(CCCCCCCCCc3ccc(O[C@H]4O[C@H](CO)[C@@H](O)[C@H](O)[C@@H]4O)c(-c4cccc(CC(=O)O)c4)c3)ccc2O[C@H]2O[C@H](CO)[C@@H](O)[C@H](O)[C@@H]2O)c1` [Compound A-9] came in with a 50% inhibitory concentration (IC50) on L-selectin of 1000 µM. Still for that read-out and setting: the result for `O=C(O)Cc1cccc(-c2cc(CCCSCCCSCCCc3ccc(O[C@H]4O[C@H](CO)[C@@H](O)[C@H](O)[C@@H]4O)c(-c4cccc(CC(=O)O)c4)c3)ccc2O[C@H]2O[C@H](CO)[C@@H](O)[C@H](O)[C@@H]2O)c1` [D] reads 5000 µM.
